# Test results taken from patent publication EP4786497A1 (Astellas Pharma Inc., dated 2026).
# Target: T1, human MerTK-human Fc fusion protein (human, UniProt Q12866 21-505)
# T1 construct: range 21-505; Made in ExpiCHO-S cells; also called human MerTK-Fc protein; MerTK-Fc fusion protein; not shown: human IgG1 Fc as encoded by the pFUSE-hIgG1-Fc1 vector (InvivoGen)
# T1 sequence (looked up): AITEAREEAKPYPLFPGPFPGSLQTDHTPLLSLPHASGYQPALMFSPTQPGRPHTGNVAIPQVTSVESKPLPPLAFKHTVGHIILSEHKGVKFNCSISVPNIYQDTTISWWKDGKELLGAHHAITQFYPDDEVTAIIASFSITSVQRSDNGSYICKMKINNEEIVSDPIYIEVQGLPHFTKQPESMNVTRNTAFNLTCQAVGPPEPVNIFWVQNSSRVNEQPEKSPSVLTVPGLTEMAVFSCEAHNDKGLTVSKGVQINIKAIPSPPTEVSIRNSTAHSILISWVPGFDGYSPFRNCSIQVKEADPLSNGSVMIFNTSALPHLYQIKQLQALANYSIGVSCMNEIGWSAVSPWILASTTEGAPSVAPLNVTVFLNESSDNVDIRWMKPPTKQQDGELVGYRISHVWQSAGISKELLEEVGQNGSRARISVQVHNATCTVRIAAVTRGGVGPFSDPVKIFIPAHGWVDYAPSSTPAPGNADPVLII
# Assay: bridging ELISA: misfolded IgL on Ni-NTA plate, antibody, then biotinylated MerTK-Fc and streptavidin-HRP
binder,measurement,value
"tA3-20_2A4_h1x (bispecific antibody, human IgG1, lambda, L234A L235A) heavy 1: not shown light 1: FMLTQPHSVSESPGKTVTISCTRSSGSIATNYVQWYQQRPGSSPTTVIYEDNQRPSGVPDRFSGSIDSSSNSASLTISGLKTEDEAVYHCQSYDSSNVVFGGGTKLTVLGQPKAAPSVTLFPPSSEELQANKATLVCLISDFYPGAVTVAWKADSSPVKAGVETTTPSKQSNNKYAASSYLSLTPEQWKSHRSYSCQVTHEGSTVEKTVAPTECS heavy 2: not shown light 2: DVVMTQTPLSLPVSLGDQASISCRSSQSLVHSTGNTYLHWYLQKPGQSPKLLIYKVSNRFSGVPDRFSGSGSGTYFTLKISRVEAEDLGVYFCSQSTHVPFTFGGGTKLEIKSSASTKGPSVFPLAPSSKSTSGGTAALGCLVKDYFPEPVTVSWNSGALTSGVHTFPAVLQSSGLYSLSSVVTVPSSSLGTQTYICNVNHKPSNTKVDKKVEPKSC",binding result,binds
